Our source for the IC50 values is patent US7265102B2 (priority 2000, dated 2007).

Amino acid sequences for entries named in this document (tags omitted). Residues count along the entry.
UniProt P25774, 115-331: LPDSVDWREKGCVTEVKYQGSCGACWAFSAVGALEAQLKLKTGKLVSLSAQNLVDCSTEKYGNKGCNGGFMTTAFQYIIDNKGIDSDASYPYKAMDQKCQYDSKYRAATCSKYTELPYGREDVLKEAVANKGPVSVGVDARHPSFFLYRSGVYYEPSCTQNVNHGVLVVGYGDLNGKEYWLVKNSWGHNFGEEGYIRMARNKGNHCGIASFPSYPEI

One may read the IC50 as the concentration that gives 50% inhibition.

The assay has as its target Recombinant human cathepsin S (CatS) (Homo sapiens, UniProt P25774). The experiment in a line: biochemical.
Regarding `Cn1cc(C2CCN(CC(O)Cn3nc(-c4ccc(C(F)(F)F)cc4)c4c3CCN(S(C)(=O)=O)C4)CC2)c2ccc(Cl)cc21` (stereo not drawn) [Example 105, 1-[4-(6-Chloro-1-methyl-1H-indol-3-yl)-piperidin-1-yl]-3-[5-methanesulfonyl-3-(4-trifluoromethyl-phenyl)-4,5,6,7-tetrahydro-pyrazolo[4,3-c]pyridin-1-yl]-propan-2-ol], the 50% inhibitory concentration (IC50) turned out to be 630 nM.
For `CS(=O)(=O)N1CCc2c(c(-c3ccc(C(F)(F)F)cc3)nn2CC(O)CN2CCC(c3c[nH]c4c3ccc[n+]4[O-])CC2)C1` (stereo not drawn) [Example 121, 1-[5-Methanesulfonyl-3-(4-trifluoromethyl-phenyl)-4,5,6,7-tetrahydro-pyrazolo[4,3-c]pyridin-1-yl]-3-[4-(7-oxy-1H-pyrrolo[2,3-b]pyridin-3-yl)-piperidin-1-yl]-propan-2-ol], the half-inhibitory concentration (IC50) amounted to 310 nM.
To `CC(=O)N1CCc2c(c(-c3ccc(C(F)(F)F)cc3)nn2CC(O)CN2CCC(c3c[nH]c4ncccc34)CC2)C1` (stereo not drawn) [Example 111, 1-[1-{2-Hydroxy-3-[4-(1H-pyrrolo[2,3-b]pyridin-3-yl)-piperidin-1-yl]-propyl}-3-(4-trifluoromethyl-phenyl)-1,4,6,7-tetrahydro-pyrazolo[4,3-c]pyridin-5-yl]-ethanone] belongs 170 nM; to `CS(=O)(=O)N1CCc2c(c(-c3ccc(C(F)(F)F)cc3)nn2CC(O)CN2CCC(c3c(C(=O)O)sc4cc(F)ccc34)CC2)C1` (stereo not drawn) [Example 132, 6-Fluoro-3-(1-{2-hydroxy-3-[5-methanesulfonyl-3-(4-trifluoromethyl-phenyl)-4,5,6,7-tetrahydro-pyrazolo[4,3-c]pyridin-1-yl]-propyl}-piperidin-4-yl)-benzo[b]thiophene-2-carboxylic acid], 90 nM.
To `COC(=O)n1cc(C2CCN(CC(O)Cn3nc(-c4ccc(C(F)(F)F)cc4)c4c3CCN(S(C)(=O)=O)C4)CC2)c2c[n+]([O-])ccc21` (stereo not drawn) [Example 126, 3-(1-{2-Hydroxy-3-[5-methanesulfonyl-3-(4-trifluoromethyl-phenyl)-4,5,6,7-tetrahydro-pyrazolo[4,3-c]pyridin-1-yl]-propyl}-piperidin-4-yl)-5-oxy-pyrrolo[3,2-c]pyridine-1-carboxylic acid methyl ester] belongs 250 nM; to `CC(=O)N1CCc2c(c(-c3ccc(C(F)(F)F)cc3)nn2CC(O)CN2CCC(c3cn(CCN4CCOCC4)c4ncccc34)CC2)C1` (stereo not drawn) [Example 114, 1-[1-(2-Hydroxy-3-{4-[1-(2-morpholin-4-yl-ethyl)-1H-pyrrolo[2,3-b]pyridin-3-yl]-piperidin-1-yl}-propyl)-3-(4-trifluoromethyl-phenyl)-1,4,6,7-tetrahydro-pyrazolo[4,3-c]pyridin-5-yl]-ethanone], 110 nM.
`CS(=O)(=O)N1CCc2c(c(-c3ccc(Br)cc3)nn2CC(O)CN2CCC(c3c[nH]c4c(Cl)cccc34)CC2)C1` (stereo not drawn) [Example 107, 1-[3-(4-Bromo-phenyl)-5-methanesulfonyl-4,5,6,7-tetrahydro-pyrazolo[4,3-c]pyridin-1-yl]-3-[4-(7-chloro-1H-indol-3-yl)-piperidin-1-yl]-propan-2-ol]: the IC50 was 40 nM.
As for `CC(=O)N1CCc2c(c(-c3ccc(C(F)(F)F)cc3)nn2CC(O)CN2CCC(c3c[nH]c4ccc(Cl)cc34)CC2)C1` (stereo not drawn) [Example 102, 1-[1-{3-[4-(5-Chloro-1H-indol-3-yl)-piperidin-1-yl]-2-hydroxy-propyl}-3-(4-trifluoromethyl-phenyl)-1,4,6,7-tetrahydro-pyrazolo[4,3-c]pyridin-5-y]-ethanone], the IC50 amounted to 110 nM.
To `CS(=O)(=O)N1CCc2c(c(-c3ccc(Br)cc3)nn2CC(O)CN2CCC(c3c[nH]c4ccncc34)CC2)C1` (stereo not drawn) [Example 124, 1-[3-(4-Bromo-phenyl)-5-methanesulfonyl-4,5,6,7-tetrahydro-pyrazolo[4,3-c]pyridin-1-yl]-3-[4-(1H-pyrrolo[3,2-c]pyridin-3-yl)-piperidin-1-yl]-propan-2-ol] belongs 130 nM.
To `CC(=O)N1CCc2c(c(-c3ccc(Br)cc3)nn2CC(O)CN2CCC(c3cn(CCN4CCOCC4)c4cc(Cl)ccc34)CC2)C1` (stereo not drawn) [Example 110, 1-[3-(4-Bromo-phenyl)-1-(3-{4-[6-chloro-1-(2-morpholin-4-yl-ethyl)-1H-indol-3-yl]-piperidin-1-yl}-2-hydroxy-propyl)-1,4,6,7-tetrahydro-pyrazolo[4,3-c]pyridin-5-yl]-ethanone] belongs 140 nM; to `CS(=O)(=O)N1CCc2c(c(-c3ccc(C(F)(F)F)cc3)nn2CC(O)CN2CCC(c3c[nH]c4nc(N5CCOCC5)ccc34)CC2)C1` (stereo not drawn) [Example 122, 1-[5-Methanesulfonyl-3-(4-trifluoromethyl-phenyl)-4,5,6,7-tetrahydro-pyrazolo[4,3-c]pyridin-1-yl]-3-[4-(6-morpholin-4-yl-1H-pyrrolo[2,3-b]pyridin-3-yl)-piperidin-1-yl]-propan-2-ol], 190 nM.
Then `CS(=O)(=O)N1CCc2c(c(-c3ccc(C(F)(F)F)cc3)nn2CCCN2CCC(c3c[nH]c4ncccc34)CC2)C1` [Example 116, 5-Methanesulfonyl-1-{3-[4-(1H-pyrrolo[2,3-b]pyridin-3-yl)-piperidin-1-yl]-propyl}-3-(4-trifluoromethyl-phenyl)-4,5,6,7-tetrahydro-1H-pyrazolo[4,3-c]pyridine], with 250 nM.
